Laboratory results: publication PMC9975673 (Cancer discovery, 2023)

Target: TRKB phosphorylation in BDNF-stimulated Ba/F3 TRKB cells (Homo sapiens, UniProt Q16620)
Experiment: cell-based

For CCn1ncc2c1-c1cnc(N)c(c1)O[C@H](C)c1cc(F)ccc1-c1nn(C)nc1C2 [NVL-520, (19R)-3-ethyl-16-fluoro-10,19-dimethyl-20-oxa-3,4,9,10,11,23-hexaazapentacyclo[19.3.1.0²,⁶.0⁸,¹².0¹³,¹⁸]pentacosa-1(24),2(6),4,8,11,13,15,17,21(25),22-decaen-22-amine], the IC50 was 850 nM.
